The source of these data is patent US9896443B2, “Perforin inhibiting benzenesulfonamide compounds, preparation and uses thereof” (Peter MacCallum Cancer Institute, priority 2012, dated 2018).

Amino acid sequences for entries named in this document (tags omitted). A change or cut given only in a name is not applied to a line headed by its entry.
UniProt P10820: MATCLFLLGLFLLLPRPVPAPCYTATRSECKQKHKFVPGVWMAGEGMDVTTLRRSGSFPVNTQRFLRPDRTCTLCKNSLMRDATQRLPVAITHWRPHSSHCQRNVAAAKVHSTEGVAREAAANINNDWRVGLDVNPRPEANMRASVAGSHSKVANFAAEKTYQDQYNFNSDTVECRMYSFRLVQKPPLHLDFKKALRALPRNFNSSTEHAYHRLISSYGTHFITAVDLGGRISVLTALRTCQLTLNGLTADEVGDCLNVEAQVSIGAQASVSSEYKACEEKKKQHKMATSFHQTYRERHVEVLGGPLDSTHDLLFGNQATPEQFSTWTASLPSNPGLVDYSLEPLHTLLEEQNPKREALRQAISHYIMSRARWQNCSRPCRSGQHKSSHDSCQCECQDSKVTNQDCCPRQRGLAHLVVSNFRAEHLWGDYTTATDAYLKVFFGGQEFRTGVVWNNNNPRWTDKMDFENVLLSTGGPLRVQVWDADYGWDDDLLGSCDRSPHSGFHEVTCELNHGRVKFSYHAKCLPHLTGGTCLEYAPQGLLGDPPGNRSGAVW

The target of the assay is recombinant perforin (UniProt P10820). Format: cell-based. Particulars: read-out: Jurkat IC50; lysis of Jurkat T lymphoma cells by recombinant perforin, 0.1% BSA, 30 min pre-incubation, 4 hours at 37° C. The protocol:
Inhibition of perforin-mediated lysis of Jurkat cells.
The ability of the compounds to inhibit the lysis of nucleated (Jurkat T lymphoma) cells in the presence of 0.1% BSA, as measured by release of ^51Cr was measured. Jurkat target cells were labelled by incubation in medium with 100 μCi ^51Cr for one hour. The cells were then washed three times to remove unincorporated isotope and re-suspended at 1×10^5 cells per mL in RPMI buffer supplemented with 0.1% BSA. […] Each data point was performed in triplicate and an IC50 was calculated from the range of concentrations described to above.

Counter-ions that a name gives are not always drawn.

Turning to `CN1Cc2cc(-c3ccc(-c4cncc(NS(=O)(=O)c5ccc(F)cc5F)c4)s3)ccc2C1=O` [Compound 1.Na, 2,4-Difluoro-N-(5-(5-(2-methyl-1-oxoisoindolin-5-yl)thiophen-2-yl)pyridin-3-yl)benzenesulfonamide, sodium salt], the IC50 is 1.59 µM.
Take `COc1ccc(S(=O)(=O)Nc2cncc(-c3ccc(-c4ccc5c(c4)CN(C)C5=O)s3)c2)cc1OC` [Compound 21.Na, 3,4-Dimethoxy-N-(5-(5-(2-methyl-1-oxoisoindolin-5-yl)thiophen-2-yl)pyridin-3-yl)benzenesulfonamide, sodium salt]: the IC50 stood at 13.8 µM.
